# Source: PubChem
# In the library only some 0.92% were active in any assay of this set; here they are far more common.
# miR-21 reporter: miR-21 reporter, rising signal | 340,000 tested, under 10 active | AID 2288 | HeLa miR-21 FLuc reporter, luciferase, 48 h | Potency, µM (titrated, usually from 38.3 µM), for inactives: at the highest dose reporter change, positive = more light; active = well fitted rising curve with a large enough effect; inconclusive = small, poorly fitted or top-dose-only effect; inactive = no such curve, though single readings can be large or run the other way;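 further: % of control where 0% means no effect; miR-21 action dims this reporter so a rising signal means less miR-21 action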
#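 Compounds were titrated across several concentrations (up to approximately 40 uM) and incubated 48 hours with HeLa miR-21-FLuc reporter cells (miR-21 target sequence downstream of FLuc, endogenous miR-21). Readout was firefly luciferase luminescence after lytic detection reagent.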
# GALK inh: blocks human galactokinase activity; AID 1868; actives 0.007% (n = 270,000); P51570; Purified GALK, Kinase-Glo residual ATP luminescence; Potency, µM (top dose mostly 57.5 µM), for the others: top-dose activity change, negative = inhibition, usual class: inhibitors; further: potency means the concentration at half of the fitted maximal effect; on the % scale 0 is the no-effect control and ±100 the full control effect
#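 Quantitative HTS: GALK 5 nM, ATP 35 uM, galactose 100 uM, 1 h room temperature, then luciferase-based ATP detection.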
# KinaseGlo FLuc: Kinase-Glo luciferase inhibition (counter-screen). Kinase-Glo luciferase, ATP luminescence, 8 min. Potency, µM (titrated, usually from 38.3 µM), without a hit: at the top dose activity change, negative = inhibition, usual class: inhibitors. actives 0.28% (n = 200,000). AID 1379; further: potency means the concentration at half of the fitted maximal effect; on the % scale 0 is the no-effect control and ±100 the full control effect; nearly all actives have a fitted effect of over 60% in size
#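 Inhibition of Kinase-Glo luciferase light generation was assessed at 10 uM ATP in pH 7.2 imidazole buffer, with luminescence measured after eight minutes at ambient temperature.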
# RXFP1 ag: RXFP1 (human) receptor agonism. HEK293T-RXFP1 cAMP TR-FRET, 30 min; response scale: percent of porcine relaxin response, buffer zero. Potency, µM (highest dose often 57.5 µM), without a hit: at the top dose activation, usual class: activators. actives 0.3% (n = 370,000); further: potency means the concentration at half of the fitted maximal effect; on the % scale 0 is the no-effect control and ±100 the full control effect; nearly all actives have a fitted effect of over 60% in size
#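 Agonist response is measured as cAMP accumulation in an RXFP1-transfected HEK293T line under PDE4 inhibition. Values are scaled between buffer-only and 29 nM porcine relaxin, and EC50s come from standard Hill equation fits.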
# RXFP1 antag: antagonists of human relaxin receptor RXFP1 | Q9HBX9 | HEK293-RXFP1, relaxin-stimulated cAMP HTRF, 30 min; hits give low values | activity change, negative = inhibition, % at 57.5 µM | actives 0.59% (n = 350,000);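 active means activity change of -60% or lower, but not beyond a set lower limit; inconclusive means change between -60% and -40%, or beyond the set limit; inactive means change above -40%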; further: on the % scale 0 is the no-effect control and ±100 the full control effect
# PKM2 activator: activators of human pyruvate kinase M2; purified PKM2, Kinase-Glo ATP luminescence, activation; response scale: 0% is enzyme alone, no compound; Potency, µM (doses to about 57.5 µM), for inactives: top-dose activation, usual class: activators; actives 0.34% (n = 260,000); AID 1631; further: potency means the concentration at half of the fitted maximal effect; on the % scale 0 is the no-effect control and ±100 the full control effect; nearly all actives have a fitted effect of over 55% in size
#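 Purified hPK-M2 (>95% pure) converted ADP (0.1 mM final) to ATP with 0.5 mM PEP in 50 mM imidazole pH7.2, KCl, MgCl2, Tween 20, BSA; 1 h at room temperature. ATP detected by Kinase-Glo luminescence.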
# An asterisk follows results filed as active; ? = inconclusive; . = not tested or not shown; [ ] = remark or other dose. Unless noted, the call rests on the fitted dose curve; in most records, active means well fitted curve in the direction sought with a large enough effect; inconclusive means small, poorly fitted or top-dose-only effect, or another doubt; inactive means no such curve, though single readings can be large; an effect the other way counts as inactive or inconclusive.
SMILES,miR-21 reporter,GALK inh,KinaseGlo FLuc,RXFP1 ag,RXFP1 antag,PKM2 activator
Cc1ccc2c(Cl)cc(Cl)c(O)c2n1,.,.,2%,.,-7,.
Cc1ccc2c(C)ccc(O)c2n1,1%,1%,-5%,0%,-70*,7%
CCOCc1cc(CN2CCN(c3ccccc3OC)CC2)c(O)c2ncccc12,-6%,.,.,-2%,-6,.
COc1ccccc1N1CCN(Cc2cc(Br)c(O)c3ncccc23)CC1,?,-1%,1%,-2%,-92*,-11%
N#CC1=C2SCN(Cc3ccccc3)CN2C(=O)CC1c1ccc2c(c1)OCO2 (stereo not drawn),-2%,-2%,-3%,0%,-20,-11%
N#CC1=C2SCN(Cc3ccccc3)CN2C(=O)CC1c1cccs1 (stereo not drawn),-3%,0%,12%,25µM*,7,-24%
O=C(c1ccc(S(=O)(=O)c2cccc(Cl)c2)c([N+](=O)[O-])c1)N1CCN(Cc2ccccc2)CC1,14%,2%,0%,-1%,2,3.2µM*
COc1ccc(C(=O)N2CCN(Cc3ccccc3)CC2)cc1[N+](=O)[O-],2%,-2%,.,1%,9,2%[11.5 µM]
Cc1nc(CNS(=O)(=O)c2cccc(F)c2)cs1,-2%,0%,-3%,0%,3,-2%
Cc1ccc(-c2csc(NS(=O)(=O)c3cccc(F)c3)n2)o1,.,.,.,.,-75*,.
O=C(CN1CCOCC1)NNc1c2ccccc2nc2ccccc12,-1%,5%,.,-5%,-62*,-16%
CC(C)OC(=O)C(C(=O)OC(C)C)=C1SC=CS1,.,.,.,.,7,.
CC(NCC(=O)NC(=O)NC1CCCC1)c1ccc(Cl)cc1Cl (stereo not drawn),.,.,.,-2%,-63*,.
OC(CNCc1ccc(-c2ccccc2)cc1)c1ccccc1 (stereo not drawn),17%,-1%,-5%,2%,-61*,10%
OC(CNCc1ccncc1)c1ccccc1 (stereo not drawn),-10%,-1%,.,-1%,-8,1%

# Entries of single compounds as entered above. Order of screens: miR-21 reporter	GALK inh	KinaseGlo FLuc	RXFP1 ag	RXFP1 antag	PKM2 activator
# Cc1ccc2c(C)ccc(O)c2n1 in the list: 1%	1%	-5%	0%	-70*	7%
# N#CC1=C2SCN(Cc3ccccc3)CN2C(=O)CC1c1ccc2c(c1)OCO2 (stereo not drawn) in the list: -2%	-2%	-3%	0%	-20	-11%
# COc1ccc(C(=O)N2CCN(Cc3ccccc3)CC2)cc1[N+](=O)[O-] in the list: 2%	-2%	.	1%	9	2%[11.5 µM]

# Remaining list, next part.
SMILES,miR-21 reporter,GALK inh,KinaseGlo FLuc,RXFP1 ag,RXFP1 antag,PKM2 activator
O=C(NCCc1ccccc1)c1c(O)c2cccc3c2n(c1=O)CC3,-3%,-2%,3%,2%,-1,-5%
O=C(NCc1ccccn1)c1c(O)c2cccc3c2n(c1=O)CC3,-7%,5%,-1%,4%,-13,8.9µM*
Oc1c(C(Nc2nccs2)c2ccc(C(F)(F)F)cc2)ccc2cccnc12 (stereo not drawn),16%,0%,.,0%,?,-9%
Oc1c(C(Nc2cccc(C(F)(F)F)c2)c2ccncc2)ccc2cccnc12 (stereo not drawn),23%,-1%,1%,2%,-61*,3%
CC(C)N1CCc2c(sc(NC(=O)c3ccc4ccccc4c3)c2C(N)=O)C1,-5%,-2%,.,-3%,-74*,-11%
CC(C)N1CCc2c(sc(NC(=O)c3ccc(C(=O)c4ccccc4)cc3)c2C(N)=O)C1,7%,4%,.,0%,-15,-4%
CN(C)c1ccc(-c2nc3ccccc3n2C)cc1,15%,7%,10µM*,0%,-17,-46%
Cn1c(-c2ccc(Br)o2)nc2ccccc21,-32%,19%,10µM*,1%,0,-53%
CC(C)n1c(-c2ccc(N(C)C)cc2)nc2ccccc21,-46%,-1%,-10%,2%,-14,-1%
Cc1ccc(-c2nc3ccccc3n2C)o1,-40%,10%,7.9µM*,2%,-3,-71%
CCCCc1cc2c(cn1)=C(OC(=O)c1ccco1)C(C)(OC(=O)CC)C(=O)C=2 (stereo not drawn),.,.,-4%[7.66 µM],.,.,-9%[11.5 µM]
COc1ccc(N(Cc2cccs2)C(=O)COc2cc(C)c(Cl)c(C)c2)cc1,8%,.,.,-2%,-69*,.
Cc1ccc(N(Cc2cccs2)C(=O)COc2cccc(C)c2)cc1,-3%,.,.,2%,.,.
COc1ccc(N(Cc2cccs2)C(=O)COc2cccc(C)c2C)cc1,12%,.,.,0%,-72*,.
C[C@]12C[C@@](C)(C=C1/C=C/c1ccc(C(F)(F)F)cc1)C(=O)C[C@H]2c1ccc(C(F)(F)F)cc1,.,.,0%,.,.,.
Cc1ccc(S(=O)(=O)N2CCCCC2)cc1NC(=O)CNC(C)c1ccc(Cl)c(Cl)c1 (stereo not drawn),.,.,.,3%,-1,.
Cc1cc(C)c2[nH]c(=O)c(C(c3nnnn3C(C)(C)C)N3CCN(C(=O)c4ccco4)CC3)cc2c1 (stereo not drawn),-2%,-2%,2%,2%,-14,11µM*
CCNc1nc(N)c(C(=O)C23CC4CC(CC(C4)C2)C3)s1,-12%,12%,.,4%,-68*,-2%
Cc1ncsc1C(=O)Nc1nc2c(s1)CCCC2,-35%,-1%,6.3µM*,0%,-2,-47%
Cc1ccc(C(C)C)c(OCC(=O)Nc2nc3c(s2)CCCC3)c1,25%,.,.,-1%,-85*,.
COc1ccccc1OCC(=O)Nc1nc2c(s1)CCCC2,-6%,4%,.,0%,-34,.
COc1ccc(C(=O)Nc2nc3c(s2)CCCC3)cc1Cl,-12%,.,.,1%,-71*,.
Cc1cccc(C(=O)Nc2nc3c(s2)CCCC3)c1,11%,.,.,2%,-87*,.
CN(C)[C@@H]1C(=O)C(C(N)=O)=C(O)[C@@]2(O)C(=O)C3=C(O)c4c(O)cccc4C[C@H]3C[C@@H]12,.,.,.,.,-6,.
COc1ccc(-c2cc(C(=O)N/N=C/c3ccc(OC)c(OC)c3)[nH]n2)cc1,.,.,-20%,.,.,.
CCC(=O)Nc1nnc(SCc2ccccc2F)s1,-23%,1%,-1%,0%,-4,-1%
Cn1c(=O)c2c(nc(Cc3ccc(N)cc3)n2C)n(C)c1=O,5%,3%,.,16µM*,-2,-2%
CC(C)N(CCNC(=O)c1ccc(Cc2nc3ccccc3[nH]2)cc1)C(C)C,.,.,-2%,.,.,.
O=C1C(C=Nc2ccccc2O)=C(O)c2ccccc21,-33%,-1%,10µM*,1%,2,-4%
Cc1ccc(O)c(N=CC2=C(O)c3ccccc3C2=O)c1,-48%,-1%,-10%,28µM*,18,0%
Cc1ccc(O)c(C=Nc2cc(C)ccc2O)c1,-1%,0%,-1%,-1%,-3,-4%
COc1cc(/C=C/C(=O)O[C@H]2CC[C@]34C[C@]35CC[C@]3(C)[C@@H]([C@H](C)CCC=C(C)C)CC[C@@]3(C)C5CCC4C2(C)C)ccc1O (stereo partly drawn),.,.,.,.,10,.
CC(Oc1cccnc1[N+](=O)[O-])C(=O)Nc1cccc(Cl)c1 (stereo not drawn),.,.,.,2%,-97*,.

# 3 compounds from above, ordered by the value under PKM2 activator, descending:
smiles	PKM2 activator
Cn1c(=O)c2c(nc(Cc3ccc(N)cc3)n2C)n(C)c1=O	-2%
Cc1ccc(O)c(C=Nc2cc(C)ccc2O)c1	-4%
Cc1ncsc1C(=O)Nc1nc2c(s1)CCCC2	-47%
